One assay deals with FGF-R1 (Homo sapiens, UniProt P11362, C488A/C584S/L457V). As to the kind of experiment: Fibroblast Growth Factor (FGF-R) spectrophotometric assay. The note with it: 1 μM compound. The source says:
The intracellular kinase domain of human FGF-R1 was expressed using the baculovirus vector expression system starting from the endogenous methionine residue 456 to glutamate 766, according to the residue numbering system of Mohammadi et al., Mol. Cell. Biol., 16, 977–989 (1996). In addition, the construct also has the following 3 amino acid substitutions: L457V, C488A, and C584S.
The production of ADP from ATP that accompanies phosphoryl transfer was coupled to oxidation of NADH using phosphoenolpyruvate (PEP) and a system having pyruvate kinase (PK) and lactic dehydrogenase (LDH). The oxidation of NADH was monitored by following the decrease of absorbance at 340 nm (e340=6.22 cm^−1 mM^−1) using a Beckman DU 650 spectrophotometer. Assay conditions for phosphorylated VEGF-R2A50 (indicated as FLVK-P in the tables below) were the following: 1 mM PEP; 250 μM NADH; 50 units of LDH/mL; 20 units of PK/mL; 5 mM DTT; 5.1 mM poly(E4Y1); 1 mM ATP; and 25 mM MgCl2 in 200 mM HEPES, pH 7.5. […] Ki values were determined by measuring enzyme activity in the presence of varying concentrations of test compounds. The data were analyzed using Enzyme Kinetic and Kaleidagraph software. […]

Sequences of proteins named here, by UniProt entry; tags and fusion partners are left off. A line that says so, or that is headed by a name, gives the form on record, which may keep a tag or linker. Residues count along the entry.
UniProt P11362, 456-766 L457V/C488A/C584S limits assumed: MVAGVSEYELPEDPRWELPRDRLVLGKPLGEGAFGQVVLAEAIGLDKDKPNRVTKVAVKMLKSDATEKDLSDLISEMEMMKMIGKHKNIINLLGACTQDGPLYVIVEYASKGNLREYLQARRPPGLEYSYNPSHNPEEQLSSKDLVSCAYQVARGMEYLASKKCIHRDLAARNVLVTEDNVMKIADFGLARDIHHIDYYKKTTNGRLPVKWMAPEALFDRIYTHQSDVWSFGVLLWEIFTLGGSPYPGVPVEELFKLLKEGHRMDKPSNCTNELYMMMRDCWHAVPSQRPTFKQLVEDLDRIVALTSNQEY
UniProt P35968, with tags, fused parts or gaps DEL940-989/E990V limits assumed: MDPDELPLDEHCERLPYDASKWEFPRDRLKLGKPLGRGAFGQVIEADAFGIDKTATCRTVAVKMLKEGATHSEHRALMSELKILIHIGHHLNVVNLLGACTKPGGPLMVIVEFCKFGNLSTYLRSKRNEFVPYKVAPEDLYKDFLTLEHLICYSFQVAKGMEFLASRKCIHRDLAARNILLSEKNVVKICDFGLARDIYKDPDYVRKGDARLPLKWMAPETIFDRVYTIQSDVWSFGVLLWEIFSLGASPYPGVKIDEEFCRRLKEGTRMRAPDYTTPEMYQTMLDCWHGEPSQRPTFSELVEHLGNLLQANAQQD
UniProt P09619, 33-1106 limits assumed: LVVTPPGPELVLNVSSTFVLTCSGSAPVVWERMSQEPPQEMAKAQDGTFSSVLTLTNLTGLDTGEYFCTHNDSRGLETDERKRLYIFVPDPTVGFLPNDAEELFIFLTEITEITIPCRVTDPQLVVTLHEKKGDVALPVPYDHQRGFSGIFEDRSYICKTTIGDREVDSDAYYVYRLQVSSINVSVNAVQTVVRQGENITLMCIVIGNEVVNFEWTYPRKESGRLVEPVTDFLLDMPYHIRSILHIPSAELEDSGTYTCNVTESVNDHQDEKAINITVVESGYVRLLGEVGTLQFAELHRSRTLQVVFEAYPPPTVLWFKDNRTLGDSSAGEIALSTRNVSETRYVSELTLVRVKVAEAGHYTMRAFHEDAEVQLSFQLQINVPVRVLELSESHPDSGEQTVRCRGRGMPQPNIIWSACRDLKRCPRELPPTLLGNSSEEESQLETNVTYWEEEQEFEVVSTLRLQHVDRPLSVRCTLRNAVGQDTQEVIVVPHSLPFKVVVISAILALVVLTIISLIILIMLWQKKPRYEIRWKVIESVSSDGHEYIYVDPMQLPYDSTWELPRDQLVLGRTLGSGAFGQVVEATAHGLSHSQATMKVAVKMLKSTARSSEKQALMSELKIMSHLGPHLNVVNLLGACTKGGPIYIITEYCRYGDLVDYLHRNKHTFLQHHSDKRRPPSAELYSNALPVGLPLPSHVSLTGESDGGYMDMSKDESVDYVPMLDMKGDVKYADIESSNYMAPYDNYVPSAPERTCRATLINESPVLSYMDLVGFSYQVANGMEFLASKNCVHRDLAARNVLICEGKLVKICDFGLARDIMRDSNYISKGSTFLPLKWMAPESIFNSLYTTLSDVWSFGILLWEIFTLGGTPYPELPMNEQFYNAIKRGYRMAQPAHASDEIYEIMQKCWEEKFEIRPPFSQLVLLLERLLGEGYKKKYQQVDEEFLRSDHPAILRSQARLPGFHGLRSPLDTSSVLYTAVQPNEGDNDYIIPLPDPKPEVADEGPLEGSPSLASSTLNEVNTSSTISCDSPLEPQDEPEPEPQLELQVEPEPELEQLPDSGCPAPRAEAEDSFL

In assay [1] the target is unphosphorylated VEGF-R2Δ50 (Homo sapiens, UniProt P35968, DEL940-989/E990V). As to the kind of experiment: VEGF-R2 coupled spectrophotometric assay, unphosphorylated construct (FLVK). The note with it: % inhibition at 50 nM compound. The source says:
This construct determines the ability of a test compound to inhibit tyrosine kinase activity. A construct (VEGF-R2Δ50) of the cytosolic domain of human vascular endothelial growth factor receptor 2 (VEGF-R2) lacking the 50 central residues of the 68 residues of the kinase insert domain was expressed in a baculovirus/insect cell system. Of the 1356 residues of full-length VEGF-R2, VEGF-R2Δ50 contains residues 806–939 and 990–1171, and also one point mutation (E99OV) within the kinase insert domain relative to wild-type VEGF-R2. Autophosphorylation of the purified construct was performed by incubation of the enzyme at a concentration of 4 μM in the presence of 3 mM ATP and 40 mM MgCl2 in 100 mM HEPES, pH 7.5, containing 5% glycerol and 5 mM DTT, at 4° C. for 2 h. […] See Parast et al., Biochemistry, 37,16788–16801 (1998).
The production of ADP from ATP that accompanies phosphoryl transfer was coupled to oxidation of NADH using phosphoenolpyruvate (PEP) and a system having pyruvate kinase (PK) and lactic dehydrogenase (LDH). The oxidation of NADH was monitored by following the decrease of absorbance at 340 nm (e340=6.22 cm^−1 mM^−1) using a Beckman DU 650 spectrophotometer. […] Ki values were determined by measuring enzyme activity in the presence of varying concentrations of test compounds. The data were analyzed using Enzyme Kinetic and Kaleidagraph software.

The next assay has as its target PDGFRβ (Homo sapiens, UniProt P09619). As to the kind of experiment: PAE-PDGFRβ Phosphorylation in PAE-PDGFRB Cells Assay. The note with it: read-out: PAE PDGFR autophos IC50; PAE cells overexpressing human PDGFRβ. As for the experimental part:
This assay determines the ability of a test compound to inhibit the autophosphorylation of PDGFRβ in porcine aorta endothelial (PAE)-PDGFRβ cells. PAE cells that overexpress human PDGFRβ were used in this assay. The cells were cultured in Ham's F12 media supplemented with 10% fetal bovine serum (FBS) and 400 ug/ml G418. Twenty thousands cells were seeded in each well of a 96-well plate in 50 μL of growth media and allowed to attach for 6 hours at 37° C. Cells were then exposed to the starvation media (Ham's F12 media supplemented with 0.1% FBS) for 16 hours. After the starvation period was over, 10 μL of test agent in 5% DMSO in starvation media were added to the test wells and 10 μL of the vehicle (5% DMSO in starvation media) were added into the control wells. The final DMSO concentration in each well was 0.5%. Plates were incubated at 37° C. for 1 hour and the cells were then stimulated with 1 μg/mL PDGF-BB (R & D System) in the presence of 2 mM Na3VO4 for 8 minutes. The cells were washed once with 1 mm Na3VO4 in HBSS and lysed by adding 50 μL per well of lysis buffer. […] Phosphorylation status was assessed by spectrophotometer reading at 450 nm. IC50 values were calculated by curve fitting using a four-parameter analysis.

Experimental findings from US7053107B2, “Indazole compounds and pharmaceutical compositions for inhibiting protein kinases, and methods for their use” (Agouron Pharmaceuticals, Inc., priority 2002, dated 2006) are described below.

Structures are written as SMILES.

For `Cc1cc(C)nc(/C=C/c2n[nH]c3cc(Nc4ncccc4C(=O)NCC#CCO)ccc23)c1`, the “FGF-P % inhibit @1 μM” value at FGF-R1 came to 56%. Further, the “FLVK Ki % inh @ 50 nM” value in assay [1] was 23%. Further, the IC50 (as a rule, the point on the concentration scale where inhibition reaches its midpoint) at PDGFRβ came out at 40 nM.
